This note sets out measurements from patent publication US4985595A, “Aminobenzamide derivatives” (Daiichi Pharmaceutical Co., Ltd., priority 1984, dated 1991).

The data set is described as follows: in vivo. The note with it: mouse, po, mice, orally administered, read-out: acute toxicity (LD50).

Usually LD50 stands for the dose at which mortality reaches 50%. For the molecule `CNC(=O)c1cccc(NCC(=O)NCCc2ccc(OC)c(OC)c2)c1` [Compound a], the LD50 is above 2000 mg/kg.
